Measured values taken from PMC8245513.

Target: unlabeled NTF2 (rat) (UniProt P61972)
Assay: partitioning into FG phase particles (confocal laser-scanning microscopy); prf.GLFG_(52x12) phase; Alexa488-labeled Ran converted to the RanGDP form by pre-incubation with RanGAP; without or with unlabeled NTF2 (2 µM dimer concentration)

- fold increase of Ran's partition coefficient into the prf.GLFG (52x12) phase on addition of NTF2: 170 fold
Substance: Alexa488-labeled Ran (from UniProt P62826 1-216) (natural protein; other documents disagree on this pair)
